Source: patent US20080026986A1, “REVERSAL OF THE SUPPRESSIVE FUNCTION OF SPECIFIC T CELLS VIA TOLL-LIKE RECEPTOR 8 SIGNALING” (priority 2006, published 2008)

Test system: antigen-specific Treg cells

CC(C)Cn1cnc2c(N)nc3ccccc3c21 [imiquimod, Imiquimod]
Reversal of the suppressive function of antigen-specific Treg cells: partial reversal
